From PubChem BioAssay AID651596 (Sanford-Burnham Center for Chemical Genomics, 2012)
The list shows a part of the results, in another mix than the full data.

experiment: caspase-8 TRAIL sensitization, hit retest, confirmation, cell-based, NB7+caspase-8, with/without TRAIL, luminescence panel (AID 651596); conditions: NB7 neuroblastoma + caspase-8, without TRAIL, luminescence viability, mean of runs, at 10 µM

Row | Structure (SMILES) | activity [%]
1 | CCCCCCCCCCCCCCCC1C[N+](C)(C)CCOP(C)(=O)O1 (configuration not stated) | 91.8
2 | O=[N+]([O-])c1cc([N+](=O)[O-])c(Nc2ccccn2)c([N+](=O)[O-])c1 | 55
